Target: Histone deacetylase 1 (Mus musculus, UniProt O09106)
Assay: Inhibition of mouse HDAC1

Amino acid sequences for entries named in this document (tags omitted).
UniProt O09106, whole entry: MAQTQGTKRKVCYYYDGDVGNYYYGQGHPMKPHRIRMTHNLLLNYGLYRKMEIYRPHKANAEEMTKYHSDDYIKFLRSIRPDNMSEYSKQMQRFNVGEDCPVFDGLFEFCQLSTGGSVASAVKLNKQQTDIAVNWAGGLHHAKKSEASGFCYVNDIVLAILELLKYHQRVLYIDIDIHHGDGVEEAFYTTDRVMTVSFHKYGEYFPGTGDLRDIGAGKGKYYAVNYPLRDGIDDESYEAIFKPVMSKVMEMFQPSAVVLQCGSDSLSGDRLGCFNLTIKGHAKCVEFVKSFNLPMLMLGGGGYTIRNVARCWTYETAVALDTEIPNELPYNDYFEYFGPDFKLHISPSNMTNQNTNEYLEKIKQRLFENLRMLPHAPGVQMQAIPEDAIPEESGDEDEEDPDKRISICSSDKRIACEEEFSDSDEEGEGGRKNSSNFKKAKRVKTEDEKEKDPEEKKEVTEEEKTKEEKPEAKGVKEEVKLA

Structure (SMILES): CC(/C=C/C(=O)NO)=C\[C@@H](C)C(=O)c1ccc(N(C)C)cc1 [TRICHOSTATIN]
- IC50: 1.8 nM

From ChEMBL document CHEMBL1137389, “Synthesis and biological properties of novel, uracil-containing histone deacetylase inhibitors” (J Med Chem, 2006)
